Reference: PMC4449328 (European neuropsychopharmacology : the journal of the …, 2014)

The chains behind the UniProt entries cited, without tags or fusion partners.
UniProt P35462, whole entry: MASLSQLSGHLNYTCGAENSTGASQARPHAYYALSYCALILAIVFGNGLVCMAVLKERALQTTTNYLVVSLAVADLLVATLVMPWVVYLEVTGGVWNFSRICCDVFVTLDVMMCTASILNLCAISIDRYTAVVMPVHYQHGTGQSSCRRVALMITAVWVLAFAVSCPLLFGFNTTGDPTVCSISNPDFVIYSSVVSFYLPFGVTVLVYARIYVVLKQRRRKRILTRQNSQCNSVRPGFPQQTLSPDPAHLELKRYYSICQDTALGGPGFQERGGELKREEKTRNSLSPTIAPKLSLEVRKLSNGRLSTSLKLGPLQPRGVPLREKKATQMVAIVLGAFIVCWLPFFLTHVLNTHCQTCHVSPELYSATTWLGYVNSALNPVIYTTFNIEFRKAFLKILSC

Target: D3 dopamine receptor (Homo sapiens, UniProt P35462)
Assay: β-arrestin recruitment assay
Type: cell-based

IC50: 41.8 nM
Structure (SMILES): CCN1CCCC1CNC(=O)c1cc(S(N)(=O)=O)ccc1OC (stereo not shown) [sulpiride]
